# Apparent affinities of Ab-14 variants for a coronavirus HR2 peptide

Values reported by Li et al. 2023, doi:10.1038/s41467-023-39022-2 (FLAb copy).

Target peptide (SARS-CoV-2 spike, HR2 region): PDVDLGDISGINAS

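The parent was found by panning a naive human phage display library on the peptide. The variants were designed computationally from a first round of random CDR variants and then made and measured. Group labels follow the data file (Ctrl: baseline library sampled from a position-specific scoring matrix, with some repeated check sequences; Rand: our label for a block that the file lists under HC and that is probably the random mutants of the ten best first-round binders; GP: Gaussian process model; HC: hill climbing; Gen: genetic algorithm; a sequence that several methods proposed may carry one label only). The assay is AlphaSeq: two haploid yeast populations carry antibody and antigen on their surface. The frequency of each diploid, read from paired DNA barcodes, reflects how well the two displayed proteins bind. The ratio of observed to expected reads was calibrated, replicate by replicate, on BCL2-family standards whose Kd was known from biolayer interferometry. There are six technical replicates.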

Parent: Ab-14, a human scFv built as VH, a (GGGGS)3 linker, VL. Only the CDRs of the light chain vary.
VH: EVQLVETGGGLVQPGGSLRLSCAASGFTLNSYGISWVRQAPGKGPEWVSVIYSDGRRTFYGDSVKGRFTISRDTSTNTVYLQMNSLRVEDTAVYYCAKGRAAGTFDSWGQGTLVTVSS
VL: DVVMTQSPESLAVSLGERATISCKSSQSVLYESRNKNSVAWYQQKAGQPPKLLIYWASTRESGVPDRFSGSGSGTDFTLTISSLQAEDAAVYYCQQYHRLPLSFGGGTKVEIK

Changes read parent residue, position, new residue, counted from the first residue of the VL shown. This list holds designs with at most six substitutions. Values are apparent Kd, the geometric mean of the replicates that gave a signal; lower means stronger binding. "nd" means that the variant was in the library but no mating with the target was seen in any replicate; the authors take this as a sign of poor binding, and no number exists.

* S25V+W56N+T59Q+Q96D [GP_Gen]: 1.4 nM (6 of 6 replicates; controls 2 of 18)
* K36E+W56A+A57L [Ctrl]: 2.1 nM (6 of 6 replicates; controls 1 of 18)
* Y31G+N35P+V39C [Ctrl]: 140 nM (1 of 6 replicates; controls 1 of 18)
* S25L+S26Y+V29Q+W56N [GP_Gen]: 550 pM (6 of 6 replicates; controls 1 of 18)
* S25L+W56N+S58M [Ctrl]: 1.1 nM (6 of 6 replicates; controls 1 of 18)
* S25V+Y31M+W56E [GP_Gen]: 1.3 nM (6 of 6 replicates; controls 0 of 18)
* S33R+S58A+Q96A [Ctrl]: nd (0 of 6 replicates; controls 0 of 18)
* S25M+Y31M+W56D+T59C [GP_HC]: 700 pM (6 of 6 replicates; controls 2 of 18)
* K24N+V29W+W56G+A57G+S58N+S62D [GP_HC]: 4.5 nM (6 of 6 replicates; controls 0 of 18)
* S25L+S26Q+L30E+W56Q [GP_Gen]: 790 pM (6 of 6 replicates; controls 0 of 18)
* S25V+V29F+K36V+W56G+E61D [GP_HC]: 730 pM (6 of 6 replicates; controls 1 of 18)
* Y31D+N35P+Q95N [Ctrl]: 95 nM (2 of 6 replicates; controls 0 of 18)
* S25V+Y31G+W56N [GP_Gen]: 810 pM (6 of 6 replicates; controls 1 of 18)
* W56G+Q95Y [Ctrl]: nd (0 of 6 replicates; controls 0 of 18)
* S25V+V29T+W56N [GP_Gen]: 950 pM (6 of 6 replicates; controls 0 of 18)
* S25I+W56Y+T59S [Ctrl]: 4.7 nM (6 of 6 replicates; controls 2 of 18)
* S25M+V29E+W56E [GP_Gen]: 990 pM (6 of 6 replicates; controls 2 of 18)
* H98C+L102F [Ctrl]: 690 nM (2 of 6 replicates; controls 1 of 18)
* S28M+R34F [Ctrl]: nd (0 of 6 replicates; controls 0 of 18)
* V29D+W56E+T59Q [GP_Gen]: 1.2 nM (6 of 6 replicates; controls 1 of 18)
* V29W+W56G+S62T [GP_HC]: 500 pM (6 of 6 replicates; controls 0 of 18)
* S25L+S26R+V29T+L30W+K36Q+W56G [GP_HC]: 530 pM (6 of 6 replicates; controls 0 of 18)
* V29E+W56D [GP_HC]: 1.1 nM (6 of 6 replicates; controls 1 of 18)
* Y31P+R34N [Ctrl]: nd (0 of 6 replicates; controls 0 of 18)
* Q27G+Y31W [Ctrl]: nd (0 of 6 replicates; controls 1 of 18)
* S25I+S33A+W56H+L102N+S103C [Ctrl]: 9.5 nM (6 of 6 replicates; controls 0 of 18)
* S25F+L30Q+Y31M+W56E+E61P [Ctrl]: 1.8 nM (6 of 6 replicates; controls 1 of 18)
* S25M+Q27N+W56Q+L102F [Ctrl]: 960 pM (6 of 6 replicates; controls 2 of 18)
* S25L+S26R+V29N+S38K [Rand]: nd (0 of 6 replicates; controls 1 of 18)
* S25L+S26M+V29Y+W56N [GP_Gen]: 2.2 nM (6 of 6 replicates; controls 1 of 18)
* S26E+V29Q+W56N [GP_Gen]: 4.3 nM (6 of 6 replicates; controls 0 of 18)
* S25T+S26L+N35D+W56H+S62D [GP_HC]: 5.4 nM (6 of 6 replicates; controls 1 of 18)
* S25L+L30D+S38N+W56N [GP_Gen]: 290 pM (6 of 6 replicates; controls 2 of 18)
* S25L+N35H+W56E [GP_Gen]: 1.4 nM (6 of 6 replicates; controls 0 of 18)
* S25V+V29W+Y31M+W56E+E61Y [GP_HC]: 1.0 nM (6 of 6 replicates; controls 0 of 18)
* S25L+Q27P+N35T+W56N [GP_HC]: 3.6 nM (6 of 6 replicates; controls 0 of 18)
* S25F+S26P+V29Q+W56N [GP_Gen]: 360 pM (6 of 6 replicates; controls 0 of 18)
* L30R+Y31Q+E32L+N35H+E61P [Ctrl]: nd (0 of 6 replicates; controls 2 of 18)
* S28M+V29Y+W56G [GP_HC]: 1.1 nM (6 of 6 replicates; controls 2 of 18)
* S25L+Y31D+S33F+Q96S [Ctrl]: 27 nM (6 of 6 replicates; controls 1 of 18)
* S26L+S28Q+V29Q+L30E+W56H+S62D [GP_HC]: 760 pM (6 of 6 replicates; controls 0 of 18)
* V29N+K36D+L102N [Ctrl]: 21 nM (3 of 6 replicates; controls 0 of 18)
* R34F+W56D [Ctrl]: 1.5 nM (6 of 6 replicates; controls 1 of 18)
* L30G+V39C+H98M [Ctrl]: nd (0 of 6 replicates; controls 0 of 18)
* Q27I+V29Y+Y31G+S33A+W56E [GP_HC]: 6.6 nM (6 of 6 replicates; controls 0 of 18)
* S25G+N37Y+W56S+L100E [Ctrl]: nd (0 of 6 replicates; controls 0 of 18)
* K24H+W56N+S103Q [GP_HC]: 2.5 nM (6 of 6 replicates; controls 2 of 18)
* S26L+V29Q+L30D+W56H+S62D [GP_HC]: 3.8 nM (6 of 6 replicates; controls 0 of 18)
* S25L+W56E+S62W [GP_Gen]: 830 pM (6 of 6 replicates; controls 0 of 18)
* S62H+P101S [Ctrl]: nd (0 of 6 replicates; controls 0 of 18)
* V29G+L30G+E32M+R34D+K36E+R60K [Ctrl]: 7.6 nM (6 of 6 replicates; controls 1 of 18)

Excerpt, the first 6 entries:

{"changes": "S25V+W56N+T59Q+Q96D", "group": "GP_Gen", "Kd (apparent)": "1.4 nM", "seen in": "6 of 6", "signal with controls": "2 of 18"}
{"changes": "K36E+W56A+A57L", "group": "Ctrl", "Kd (apparent)": "2.1 nM", "seen in": "6 of 6", "signal with controls": "1 of 18"}
{"changes": "Y31G+N35P+V39C", "group": "Ctrl", "Kd (apparent)": "140 nM", "seen in": "1 of 6", "signal with controls": "1 of 18"}
{"changes": "S25L+S26Y+V29Q+W56N", "group": "GP_Gen", "Kd (apparent)": "550 pM", "seen in": "6 of 6", "signal with controls": "1 of 18"}
{"changes": "S25L+W56N+S58M", "group": "Ctrl", "Kd (apparent)": "1.1 nM", "seen in": "6 of 6", "signal with controls": "1 of 18"}
{"changes": "S25V+Y31M+W56E", "group": "GP_Gen", "Kd (apparent)": "1.3 nM", "seen in": "6 of 6", "signal with controls": "0 of 18"}

In the paper, a design with two or fewer of six values counts as a poor binder. Of ten entries with the parent sequence, four were seen in most replicates (averages 2.2 nM to 240 nM), three in one and three in none, so single entries are noisy. As a blank, each scFv also met three strains without target: over all light chain designs, 4% of these pairings were detected, typically at 430 nM and seldom below 38 nM. Also given: how often the same scFv was detected with the empty control strains. The range of this assay differs from that of the first round, and the authors advise against merging the two.